Only a part is listed here, and it is no random draw. Active and inactive are the calls of the source.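 Rule for the calls: active = compounds whose thallium flux B-score, printed positive for inhibition, exceeds three library SD while starting fluorescence stays within three; inactive = the rest.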

Protein sequences, listed by entry. Tags and fused reporters are not part of them.
UniProt P51787, whole entry: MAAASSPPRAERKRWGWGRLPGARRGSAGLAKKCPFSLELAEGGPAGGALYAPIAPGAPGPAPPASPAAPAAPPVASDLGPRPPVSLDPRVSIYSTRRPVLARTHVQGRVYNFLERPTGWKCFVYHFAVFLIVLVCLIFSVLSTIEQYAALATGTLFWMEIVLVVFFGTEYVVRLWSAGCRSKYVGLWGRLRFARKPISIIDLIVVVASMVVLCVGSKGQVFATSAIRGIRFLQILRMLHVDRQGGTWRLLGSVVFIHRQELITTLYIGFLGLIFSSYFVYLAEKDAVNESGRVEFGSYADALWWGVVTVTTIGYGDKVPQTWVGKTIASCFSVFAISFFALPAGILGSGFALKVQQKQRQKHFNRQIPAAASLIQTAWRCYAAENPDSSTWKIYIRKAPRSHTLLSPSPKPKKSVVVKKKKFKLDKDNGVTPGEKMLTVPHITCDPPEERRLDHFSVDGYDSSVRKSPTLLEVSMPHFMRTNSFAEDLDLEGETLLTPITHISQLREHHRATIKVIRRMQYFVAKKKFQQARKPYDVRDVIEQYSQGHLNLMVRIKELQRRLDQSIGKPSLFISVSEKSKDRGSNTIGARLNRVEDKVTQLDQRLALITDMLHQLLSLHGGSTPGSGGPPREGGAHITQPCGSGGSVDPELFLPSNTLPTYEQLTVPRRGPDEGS

This assay addresses Potassium voltage-gated channel subfamily KQT member 1 (Homo sapiens) (UniProt P51787). Briefly: KCNQ1 potassium current blockers – cell-based, thallium flux, high-throughput, primary screen (AID 2642).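 Note: channel opened by potassium depolarization with thallium stimulus after 20 min compound exposure.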 The following applies: CHO-K1 KCNQ1, FluxOR thallium flux fluorescence; at 10 µM.
On to `COc1ccc(NC2CCN(C(=O)OC(C)(C)C)CC2)cc1`, for which the compound was called inactive.

As to `CN1CCN(CCOC(=O)C(O)(c2ccccc2)c2ccccc2)CC1`, the compound was called inactive.

In the case of `O=C(NCC1(N2CCOCC2)CCCCC1)c1cc(=O)[nH]c2ccccc12`, the call was inactive.

With `COc1cc(C(=O)NCC2(N3CCCCC3)CCCCC2)ccc1OC(F)F`, the compound was classed as inactive.

On to `O=C(NCC1(N2CCCCC2)CCCCC1)c1cccc(C(F)(F)F)c1`, for which the result was inactive.

For `O=C(NCC1(N2CCCCC2)CCCCC1)c1cccc([N+](=O)[O-])c1`, the outcome was inactive.

Consider `CCN1CCC(Nc2ccc(Cl)cc2)CC1`, for which the outcome was inactive.

As for `N#CC1(Nc2ccccc2)CCN(CCc2ccccc2)CC1`, the call was inactive.

As for `O=C(NCC1(N2CCCCC2)CCCCC1)c1ccc(OC(F)F)cc1`, the call was inactive.

With `CCCOc1ccc(C(=O)NCC2(N(C)C)CCCCC2)cc1OC`, the compound was called inactive.

In the case of `CN1CCC(Nc2cccc(F)c2)CC1`, the call was inactive.

`COc1cc(OC)c(C(=O)NCC2(N(C)C)CCCCC2)cc1OC`: the compound was called inactive.

`COc1ccc(CN(CCCl)CCCl)cc1Cl`: the call was inactive.

With `CN(C)c1cccc(C(=O)NCC2(N3CCCCC3)CCCCC2)c1`, the compound was classed as inactive.

Consider `CC(C)c1ccc(NC2CCN(C(=O)OC(C)(C)C)CC2)cc1`, for which the outcome was inactive.

Take `CCOC(=O)N1CCC(Nc2ccc(OC)cc2)CC1`: the result was inactive.

Consider `N#CC1(Nc2ccccc2)CCN(Cc2ccccc2)CC1`, for which the compound was called inactive.

Regarding `O=C(OC1CN2CCC1CC2)C1c2ccccc2Oc2ccccc21` (centres undefined), the outcome was inactive.

As to `O=C(NCC1(N2CCOCC2)CCCCC1)c1cc2ccccc2o1`, the outcome was inactive.

For the compound `O=C(NCC1(N2CCCCC2)CCCCC1)c1ccc(Cl)nc1`, the outcome was inactive.

In the case of `Cc1cc(C)cc(N(C(=O)c2ccccc2)C2CCN(C(=O)OC(C)(C)C)CC2)c1`, the compound was called inactive.

As to `CSc1ccccc1C(=O)NCC1(N2CCCCC2)CCCCC1`, the result was inactive.

As for `O=C(NCC1(N2CCCCC2)CCCCC1)c1ccc(=O)[nH]c1`, the call was inactive.

Regarding `O=C(NCC1(N2CCCCC2)CCCCC1)c1cccs1`, the outcome was inactive.

On to `COc1ccc(C(=O)NCC2(N3CCCCC3)CCCCC2)cc1`, for which the compound was called inactive.

Consider `CC(C)(C)OC(=O)N1CCC(N(C(=O)c2ccccc2)c2ccc(F)cc2)CC1`, for which the outcome was inactive.

With `COc1ccc(C(=O)NCC2(N3CCCCC3)CCCCC2)c(OC)c1OC`, the result was inactive.

Consider `CCOC(=O)N1CCC(Nc2cccc(C)c2)CC1`, for which the compound was called inactive.

In the case of `COc1cc(C(=O)NCC2(N(C)C)CCCCC2)ccc1OC(F)F`, the result was inactive.

With `Cc1ccc(OCC(C)C)c(CN(CCCl)CCCl)c1`, the outcome was inactive.

For `O=C(NCC1(N2CCCCC2)CCCCC1)c1ccc(F)cc1`, the compound was called inactive.

As for `CCOC(=O)N1CCC(Nc2ccc(F)cc2)CC1`, the compound was classed as inactive.

In the case of `COc1ccc(NC2CCN(CCc3ccccc3)CC2)c(OC)c1`, the outcome was inactive.

With `CCOc1ccc(C)cc1CN(CCCl)CCCl`, the compound was classed as inactive.

As to `CN(C)c1ccc(C(=O)NCC2(N3CCCCC3)CCCCC2)cc1`, the outcome was inactive.

In the case of `CCN1CCC(Nc2cccc(F)c2)CC1`, the result was inactive.

For `Cc1ccc(C(=O)NCC2(N3CCCCC3)CCCCC2)o1`, the outcome was inactive.

Turning to `Fc1ccccc1NC1CCN(Cc2ccccc2)CC1`, the compound was classed as inactive.

As for `COc1cc(OC)cc(C(=O)NCC2(N3CCCCC3)CCCCC2)c1`, the compound was called inactive.

As to `CCCOc1ccc(C)cc1CN(CCCl)CCCl`, the compound was called inactive.

Turning to `CN1CCC(Nc2ccc(Cl)cc2)CC1`, the outcome was inactive.

For the compound `CCC(CO)(C(=O)OC1CN2CCC1CC2)c1ccccc1` (centres undefined), the outcome was inactive.

Take `COc1cccc(C(=O)N(c2cc(C)cc(C)c2)C2CCN(C(=O)OC(C)(C)C)CC2)c1`: the call was inactive.

In the case of `COc1cc(OC)cc(C(=O)NCC2(N3CCOCC3)CCCCC2)c1`, the result was inactive.

For the compound `CCCOc1ccc(C(=O)NCC2(N(C)C)CCCCC2)cc1`, the result was inactive.

For the compound `CC(C)(C)OC(=O)N1CCC(Nc2ccccc2)CC1`, the result was inactive.

For the compound `O=C(O)C1(Nc2ccccc2)CCN(Cc2ccccc2)CC1`, the result was inactive.

As to `CCOc1ncccc1C(=O)NCC1(N2CCOCC2)CCCCC1`, the compound was classed as inactive.

Take `CN1CCC(Nc2ccc(F)c(Cl)c2)CC1`: the compound was classed as inactive.

Take `CCc1cc(C(=O)NCC2(N3CCCCC3)CCCCC2)sc1C`: the call was inactive.

On to `O=C(OC1CN2CCC1CC2)C1c2ccccc2C=Cc2ccccc21` (centres undefined), for which the compound was called inactive.

For `N/C(=N\O)c1c(N)no[n+]1[O-]`, the call was inactive.

Consider `CCOC(=O)N1CCC(Nc2ccc(C)cc2)CC1`, for which the call was inactive.

For the compound `COc1ccc(C(=O)NCC2(N3CCOCC3)CCCCC2)cc1OC`, the compound was called inactive.

For `c1ccc(CN2CCC(Nc3ccccc3)CC2)cc1`, the compound was called inactive.

As for `CCCN1CCC(Nc2cc(OC)cc(OC)c2)CC1`, the compound was classed as inactive.

In the case of `CN(C)C1(CNC(=O)c2cccc(C#N)c2)CCCCC1`, the result was inactive.

Turning to `CC(C)(C)OC(=O)N1CCC(N(C(=O)c2ccccc2)c2ccc(Cl)cc2)CC1`, the result was inactive.

Consider `N#Cc1ccc(C(=O)NCC2(N3CCCCC3)CCCCC2)cc1`, for which the compound was called inactive.

Source of the values: PubChem BioAssay AID2642 (Johns Hopkins Ion Channel Center, 2010).
